From BindingDB's records for doi:10.1016/j.bioorg.2014.11.005 (Charles University In Prague, 2015) come the findings set out here.

Chains of the proteins cited; added tags and fusions are not shown.
UniProt Q9N1N9, whole entry: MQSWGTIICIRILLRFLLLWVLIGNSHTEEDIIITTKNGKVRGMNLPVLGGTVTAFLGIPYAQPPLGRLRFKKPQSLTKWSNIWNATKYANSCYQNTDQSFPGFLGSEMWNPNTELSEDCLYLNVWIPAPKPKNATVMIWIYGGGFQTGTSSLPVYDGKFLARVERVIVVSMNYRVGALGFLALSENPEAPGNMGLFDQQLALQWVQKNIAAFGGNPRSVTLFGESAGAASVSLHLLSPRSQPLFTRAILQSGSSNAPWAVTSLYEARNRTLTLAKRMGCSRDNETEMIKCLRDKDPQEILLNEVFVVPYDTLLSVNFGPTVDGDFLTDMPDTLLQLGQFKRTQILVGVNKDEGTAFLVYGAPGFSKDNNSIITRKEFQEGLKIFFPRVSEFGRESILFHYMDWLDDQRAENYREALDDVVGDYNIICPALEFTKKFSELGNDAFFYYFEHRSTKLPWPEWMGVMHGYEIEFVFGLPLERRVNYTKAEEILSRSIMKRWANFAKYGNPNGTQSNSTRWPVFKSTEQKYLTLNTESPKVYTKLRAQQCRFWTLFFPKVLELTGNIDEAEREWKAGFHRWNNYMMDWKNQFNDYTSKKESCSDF

A word on the IC50: it is the midpoint of a concentration-inhibition curve. Low readings indicate greater potency in that assay, high ones weaker potency in that assay.

The target in this assay is Carboxylic ester hydrolase (Equus caballus, UniProt Q9N1N9). As to the kind of experiment: Ellman's Method.

For `CCN(C)C(=O)Oc1cccc([C@H](C)N(C)C)c1` [3-[(1S)-1-(dimethylamino)ethyl]phenyl N-ethyl-N-methylcarbamate], the midpoint of inhibition, the IC50, lay at 20 µM.
